This passage reports inhibition results from PubChem BioAssay AID1053197 (The Scripps Research Institute Molecular Screening Center, 2014).

Sequences of proteins named here, by UniProt entry; tags and fusion partners are left off.
UniProt Q9HAT2, whole entry: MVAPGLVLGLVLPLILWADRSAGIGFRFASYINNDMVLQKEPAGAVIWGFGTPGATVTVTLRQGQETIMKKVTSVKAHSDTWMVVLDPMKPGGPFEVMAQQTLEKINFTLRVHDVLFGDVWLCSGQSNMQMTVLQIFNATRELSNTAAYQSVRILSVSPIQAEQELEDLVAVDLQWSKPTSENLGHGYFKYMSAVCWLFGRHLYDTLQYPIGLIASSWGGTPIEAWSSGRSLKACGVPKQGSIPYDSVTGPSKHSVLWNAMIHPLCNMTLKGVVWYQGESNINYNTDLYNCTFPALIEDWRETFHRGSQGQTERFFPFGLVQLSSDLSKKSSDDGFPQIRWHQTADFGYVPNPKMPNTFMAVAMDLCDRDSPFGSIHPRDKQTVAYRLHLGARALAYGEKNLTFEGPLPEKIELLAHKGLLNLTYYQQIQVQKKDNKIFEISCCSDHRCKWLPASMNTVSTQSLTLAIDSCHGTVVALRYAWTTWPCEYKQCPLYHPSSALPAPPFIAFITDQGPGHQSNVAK

The structures appear in SMILES notation. The entries are a selection whose mix differs from that of the whole data set. The source made the active and inactive calls.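 How the source made its calls: active means inhibition above a cutoff: mean of compounds within the control limits plus 3 SD of those (cut at about 17% in these data); inactive means the rest.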

For this assay, the target named is Sialate O-acetylesterase (Homo sapiens) (UniProt Q9HAT2). Kind of assay: blockers of sialate O-acetylesterase activity-probe labeling – biochemical, fluorescence polarization, FP-Rh probe, 1536-well HTS, primary screen (AID 1053197).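 Further: 0% = plate median of compound wells and 100% = probe without SIAE protein.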 The note with it: SIAE FP-Rh probe binding, at 9.66 µM, hits give high values. Background: Polarisation of emitted light reports the rotation of a fluorescent probe.
Turning to `COc1ccc(NC2CCN(C(=O)OC(C)(C)C)CC2)cc1`, the inhibition was inactive: 5.85%.
The figure for `CN1CCN(CCOC(=O)C(O)(c2ccccc2)c2ccccc2)CC1` is inactive: -1.67%.
With `CCCCn1nnnc1C(c1cccc2ccccc12)N1CCC(n2c(=O)[nH]c3ccccc32)CC1` (stereo not given) the figure was inactive: -5.38%.
With `CC(C)c1ccc(NC2CCN(C(=O)OC(C)(C)C)CC2)cc1` the figure was inactive: 8.81%; with `CN(C)c1cccc(C(=O)NCC2(N3CCCCC3)CCCCC2)c1`, inactive: 3.84%; with `COc1ccc(CN(CCCl)CCCl)cc1Cl`, inactive: -4.15%.
As to `COC(=O)C1(Nc2ccccc2)CCN(Cc2ccccc2)CC1`, the inhibition is inactive: 4.24%.
As to `CCC(c1nnnn1C(C)(C)C)N1CCC(n2c(=O)[nH]c3ccccc32)CC1` (stereo not given), the inhibition is inactive: 0.77%.
For `O=C(NCC1(N2CCOCC2)CCCCC1)c1cc(F)c(F)cc1Cl`, the inhibition was inactive: 3.76%.
With `COc1cc(OC)c(C(=O)NCC2(N(C)C)CCCCC2)cc1OC` the figure was inactive: 1.91%; with `CCCCn1nnnc1C(c1ccnc2ccccc12)N1CCC(n2c(=O)[nH]c3ccccc32)CC1` (stereo not given), inactive: 4.93%; with `CN1CCC(Nc2cccc(F)c2)CC1`, inactive: 5.84%.
The figure for `O=C(NCC1(N2CCCCC2)CCCCC1)c1cncc(Br)c1` is inactive: -0.5%; for `COc1ccc(C(c2nnnn2C2CCCC2)N2CCC(n3c(=O)[nH]c4ccccc43)CC2)cc1` (stereo not given) it is inactive: -3.04%.
The figure for `CCCOc1ccc(C(=O)NCC2(N(C)C)CCCCC2)cc1OC` is inactive: -5.85%.
Regarding `Cc1ccc(C(=O)NCC2(N(C)C)CCCCC2)o1`, the inhibition was inactive: 0.81%.
With `CC(C)(C)OC(=O)N1CCC(N(C(=O)c2ccccc2)c2ccc(F)cc2)CC1` the figure was inactive: 6.78%.
As to `COc1ccc(C(=O)NCC2(N3CCCCC3)CCCCC2)c(OC)c1OC`, the inhibition is inactive: -0.78%.
With `CCC(c1nnnn1C1CCCC1)N1CCC(n2c(=O)[nH]c3ccccc32)CC1` (stereo not given) the figure was active: 17.7%; with `COc1ccc(C(=O)NCC2(N3CCCCC3)CCCCC2)cc1`, inactive: 1.18%; with `O=C(NCC1(N2CCCCC2)CCCCC1)c1cccs1`, inactive: 5.9%.
`CCCCn1nnnc1C(CC)N1CCC(n2c(=O)[nH]c3ccccc32)CC1` (stereo not given): the inhibition is inactive: 1.82%.
With `CCCCn1nnnc1C(c1cccs1)N1CCC(n2c(=O)[nH]c3ccccc32)CC1` (stereo not given) the figure was inactive: 6.15%; with `O=C(NCC1(N2CCCCC2)CCCCC1)c1ccc(=O)[nH]c1`, inactive: 1.82%.
The figure for `Cc1cccc(NC2(C#N)CCN(Cc3ccccc3)CC2)c1` is inactive: -0.22%; for `CSc1ccccc1C(=O)NCC1(N2CCCCC2)CCCCC1` it is inactive: 3.28%; for `Cc1cc(C)cc(N(C(=O)c2ccccc2)C2CCN(C(=O)OC(C)(C)C)CC2)c1` it is inactive: 1.57%.
With `O=C(NCC1(N2CCCCC2)CCCCC1)c1ccc(Cl)nc1` the figure was inactive: 1.57%.
For `O=c1[nH]c2ccccc2n1C1CCN(C(c2ccccc2OC(F)(F)F)c2nnnn2C2CCCCC2)CC1` (stereo not given), the inhibition was inactive: -4.38%.
On to `O=C(NCC1(N2CCOCC2)CCCCC1)c1cc2ccccc2o1`, for which the inhibition is inactive: -3%.
With `COc1ccc(Cl)cc1C(=O)NCC1(N2CCOCC2)CCCCC1` the figure was inactive: -14.2%.
The figure for `O=C(NCC1(N2CCCCC2)CCCCC1)c1ccc(Cl)s1` is inactive: -5.01%.
With `N#CC1(Nc2ccccc2)CCN(Cc2ccccc2)CC1` the figure was inactive: 4.26%; with `O=c1[nH]c2ccccc2n1C1CCN(C(c2cc3ccccc3o2)c2nnnn2C2CCCCC2)CC1` (stereo not given), inactive: -10.2%.
Take `O=C(OC1CN2CCC1CC2)C1c2ccccc2Oc2ccccc21` (stereo not given): the inhibition is inactive: 7.34%.
The figure for `CCCCn1nnnc1C(c1ccc(OC)cc1)N1CCC(n2c(=O)[nH]c3ccccc32)CC1` (stereo not given) is inactive: -4.37%; for `CCOC(=O)N1CCC(Nc2ccc(OC)cc2)CC1` it is inactive: 2.39%; for `O=C1CCN(Cc2ccccc2)CC1` it is inactive: -1.61%.
With `CC(C)(C)n1nnnc1C(c1ccccc1)N1CCC(n2c(=O)[nH]c3ccccc32)CC1` (stereo not given) the figure was inactive: -0.52%; with `CCOc1ccc(C)cc1CN(CCCl)CCCl`, inactive: 1.33%.
With `CCOC(=O)N1CCC(Nc2ccc(F)cc2)CC1` the figure was inactive: -3.2%; with `COc1ccc(NC2CCN(CCc3ccccc3)CC2)c(OC)c1`, inactive: -2.9%; with `CCCCOc1ccc(C(=O)NCC2(N3CCOCC3)CCCCC2)cc1`, inactive: 2.06%.
For `CCCCn1nnnc1C(c1cc2ccccc2o1)N1CCC(n2c(=O)[nH]c3ccccc32)CC1` (stereo not given), the inhibition was inactive: -2.93%.
The figure for `O=P1(N(CCCl)CCCl)SCCCS1` is inactive: -3.34%; for `O=C(NCC1(N2CCCCC2)CCCCC1)c1ccc(F)cc1` it is inactive: 0.96%.
With `O=c1[nH]c2ccccc2n1C1CCN(C(c2ccccc2)c2nnnn2C2CCCCC2)CC1` (stereo not given) the figure was inactive: -1.12%; with `CCOC(=O)N1CCC(Nc2cccc(C)c2)CC1`, inactive: -3.12%; with `COc1cc(C(=O)NCC2(N(C)C)CCCCC2)ccc1OC(F)F`, inactive: -5.2%.
`O=c1[nH]c2ccccc2n1C1CCN(C(c2cccc3ccccc23)c2nnnn2C2CCCC2)CC1` (stereo not given): the inhibition is inactive: -11%.

Usually inhibition stands for the change of the read-out against control, counted positive when it falls.
